Test results taken from paper PMC6753678, “Fueling Open Innovation for Malaria Transmission-Blocking Drugs: Hundreds of Molecules Targeting Early Parasite Mosquito Stages” (Frontiers in Microbiology, 2019).

What was measured:
[1] = system: P. berghei ookinete development
[2] = system: P. falciparum female gametocytes; assay: P. falciparum female gametogenesis assay (Pf FGAA); settings: 1: YES; 0: NO

CCC(C)(C)n1c(C)cc2c3c(N)nc(N)nc3ccc21 [TCMDC-137307]
Is compound selective in assay? Pb ODA active? [1]: 0 (key: 1: YES; 0: NO)

COc1cc(Cn2ccc3c4c(N)nc(N)nc4ccc32)cc(OC)c1OC [TCMDC-137341]
Is compound selective in assay? Pb ODA active? [1]: 0 (key: 1: YES; 0: NO)

CC(C)(CN)c1nc(-c2ccc(Cl)c(O)c2)c(-c2ccncc2)[nH]1.Cl [TCMDC-140369]
Is compound selective in assay? Pf FGAA active? [2]: 0 (0: NO) | Is compound selective in assay? Pb ODA active? [1]: 0 (key: 1: YES; 0: NO)
